{
  "source": "PubChem BioAssay (NCI)",
  "assay_in_all_cases": "inhibition of tumour cell growth, NCI panel, 48 h",
  "key": {"SF-268 CNS": {"test_system": "SF-268 CNS"}, "TK-10 renal": {"test_system": "TK-10 renal"}, "UACC-62 melanoma": {"test_system": "UACC-62 melanoma"}, "SW-620 colon": {"test_system": "SW-620 colon"}, "SNB-19 CNS": {"test_system": "SNB-19 CNS"}, "IGROV1 ovarian": {"test_system": "IGROV1 ovarian"}, "KM12 colon": {"test_system": "KM12 colon"}, "LOX IMVI melanoma": {"test_system": "LOX IMVI melanoma"}, "BT-549 breast": {"test_system": "BT-549 breast"}, "EKVX NSCLC": {"test_system": "EKVX NSCLC"}, "HCC-2998 colon": {"test_system": "HCC-2998 colon"}, "HOP-62 NSCLC": {"test_system": "HOP-62 NSCLC"}, "RXF 393 renal": {"test_system": "RXF 393 renal"}, "SF-295 CNS": {"test_system": "SF-295 CNS"}, "NCI-H23 lung": {"test_system": "NCI-H23 lung"}, "SK-OV-3 ovarian": {"test_system": "SK-OV-3 ovarian"}, "ACHN renal": {"test_system": "ACHN renal"}, "SK-MEL-28 melanoma": {"test_system": "SK-MEL-28 melanoma"}, "OVCAR-4 ovarian": {"test_system": "OVCAR-4 ovarian"}, "SNB-75 CNS": {"test_system": "SNB-75 CNS"}, "U251 CNS": {"test_system": "U251 CNS"}, "OVCAR-5 ovarian": {"test_system": "OVCAR-5 ovarian"}, "786-0 renal": {"test_system": "786-0 renal"}, "NCI-H460 lung": {"test_system": "NCI-H460 lung"}, "CAKI-1 renal": {"test_system": "CAKI-1 renal"}, "M14 melanoma": {"test_system": "M14 melanoma"}, "MALME-3M melanoma": {"test_system": "MALME-3M melanoma"}, "HCT-15 colon": {"test_system": "HCT-15 colon"}, "HT29 colon": {"test_system": "HT29 colon"}, "SF-539 CNS": {"test_system": "SF-539 CNS"}, "DU-145 prostate": {"test_system": "DU-145 prostate"}, "SK-MEL-5 melanoma": {"test_system": "SK-MEL-5 melanoma"}, "HS 578T breast": {"test_system": "HS 578T breast"}, "T-47D breast": {"test_system": "T-47D breast"}, "COLO 205 colon": {"test_system": "COLO 205 colon"}},
  "note": "Values joined by “and” are separate entries in the source; they are usually repeats but may differ in a detail not shown here. Equal entries are not always repeated.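 Grown in 96-well plates, cells were treated for 48 hours with each compound at five concentrations. Insufficient inhibition: endpoint recorded as highest concentration tested. Abbreviation: GI50, concentration required for 50% inhibition of growth. TGI marks complete inhibition of growth.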",
  "data": [
    {"smiles": "O=C1c2c(O)ccc(O)c2C(=O)c2c(NCCNCCO)ccc(NCCNCCO)c21", "values": [
      {"measurement": "GI50", "setting": "SF-268 CNS", "value": "13.6 nM and 25.5 nM and 28.7 nM"},
      {"measurement": "GI50", "setting": "TK-10 renal", "value": 79.2, "unit": "nM"},
      {"measurement": "GI50", "setting": "UACC-62 melanoma", "value": "17.2 nM and 33.4 nM and 38.6 nM"},
      {"measurement": "GI50", "setting": "SW-620 colon", "value": 64, "unit": "nM"},
      {"measurement": "GI50", "setting": "SNB-19 CNS", "value": 18.9, "unit": "nM"},
      {"measurement": "GI50", "setting": "IGROV1 ovarian", "value": "91.5 nM and 82.1 nM and 185 nM"},
      {"measurement": "GI50", "setting": "KM12 colon", "value": "220 nM and 330 nM"},
      {"measurement": "GI50", "setting": "LOX IMVI melanoma", "value": 18.2, "unit": "nM"},
      {"measurement": "GI50", "setting": "BT-549 breast", "value": 247, "unit": "nM"},
      {"measurement": "GI50", "setting": "EKVX NSCLC", "value": "1280 nM and 289 nM"},
      {"measurement": "GI50", "setting": "HCC-2998 colon", "value": "87.8 nM and 153 nM and 238 nM"},
      {"measurement": "GI50", "setting": "HOP-62 NSCLC", "value": 9.3, "unit": "nM"},
      {"measurement": "GI50", "setting": "RXF 393 renal", "value": 54.8, "unit": "nM"},
      {"measurement": "GI50", "setting": "SF-295 CNS", "value": "< 10 nM and 15.3 nM and 21.1 nM"},
      {"measurement": "GI50", "setting": "NCI-H23 lung", "value": "17.2 nM and 39.5 nM and 66.4 nM"},
      {"measurement": "TGI", "setting": "NCI-H23 lung", "value": "488 nM and 911 nM and 1110 nM"},
      {"measurement": "GI50", "setting": "SK-OV-3 ovarian", "value": 27.3, "unit": "nM"},
      {"measurement": "GI50", "setting": "ACHN renal", "value": 19.5, "unit": "nM"},
      {"measurement": "GI50", "setting": "SK-MEL-28 melanoma", "value": 252, "unit": "nM"},
      {"measurement": "GI50", "setting": "OVCAR-4 ovarian", "value": 136, "unit": "nM"},
      {"measurement": "GI50", "setting": "SNB-75 CNS", "value": 42.6, "unit": "nM"},
      {"measurement": "GI50", "setting": "U251 CNS", "value": 15.3, "unit": "nM"},
      {"measurement": "GI50", "setting": "OVCAR-5 ovarian", "value": "83.5 nM and 206 nM and 308 nM"},
      {"measurement": "GI50", "setting": "786-0 renal", "value": "< 10 nM and 21.4 nM and 21.5 nM"},
      {"measurement": "GI50", "setting": "NCI-H460 lung", "value": "< 5", "unit": "nM"},
      {"measurement": "GI50", "setting": "CAKI-1 renal", "value": "17.8 nM and 78 nM"},
      {"measurement": "TGI", "setting": "CAKI-1 renal", "value": 9940, "unit": "nM"},
      {"measurement": "GI50", "setting": "M14 melanoma", "value": 56.9, "unit": "nM"},
      {"measurement": "GI50", "setting": "MALME-3M melanoma", "value": 94.3, "unit": "nM"},
      {"measurement": "GI50", "setting": "HCT-15 colon", "value": "133 nM and 253 nM and 283 nM"},
      {"measurement": "GI50", "setting": "HT29 colon", "value": 83.4, "unit": "nM"},
      {"measurement": "GI50", "setting": "SF-539 CNS", "value": "21.4 nM and 21.7 nM"},
      {"measurement": "GI50", "setting": "DU-145 prostate", "value": 18.3, "unit": "nM"},
      {"measurement": "GI50", "setting": "SK-MEL-5 melanoma", "value": 33.6, "unit": "nM"},
      {"measurement": "GI50", "setting": "HS 578T breast", "value": "28.4 nM and 166 nM and 92.8 nM"},
      {"measurement": "GI50", "setting": "T-47D breast", "value": 26.8, "unit": "nM"},
      {"measurement": "GI50", "setting": "COLO 205 colon", "value": "89.7 nM and 164 nM"}
    ]}
  ]
}
